From patent publication US6376644B1, “Biodegradable polymers chain-extended by phosphates, compositions, articles and methods for making and using the same” (Guilford Pharmaceuticals, Inc., priority 1997, dated 2002)

Conditions: pH 7.4

## Poly(L-lactide-co-ethyl-phosphate) [P(LAEG-EOP)]
  Degradation profile (weight loss and molecular weight change): favorable degradation profiles
